Data from patent US20020160916A1, “Agricultural formulation” (priority 2001, published 2002).

Test: pH of the composition
Type: physicochemical
Settings: pH of the composition / salt on its own

pH: 9.0
Substance: Monoethanolamine salt of boric acid
